Laboratory results reported in patent publication US9956229B2, “Acyclic cucurbit[n]uril type molecular containers to treat intoxication and decrease relapse rate in substance abuse disorders” (UNIVERSITY OF MARYLAND, COLLEGE PARK, priority 2014, dated 2018).

System: fentanyl-induced respiratory depression
Test: Rat breathing studies with fentanyl (pneumotachometer)
Settings: fentanyl 25 mcg/kg IV over 30 mins; calabadion 2 100 mg/kg IV bolus, then naloxone 1 mg/kg IV bolus

C=CCN1CC[C@]23c4c5ccc(O)c4O[C@H]2C(=O)CC[C@@]3(O)[C@H]1C5 was tested, and the “effect on end-tidal carbon dioxide and minute ventilation during fentanyl infusion” value was “lower recovering effects”.
